The results in this text go back to patent US20170056336A1 (published 2017).

For this assay, the system named is genes regulated by FL-AR and AR-V7 in LNCaP95 cells. Kind of assay: Gene expression analysis (quantitative real-time RT-PCR) in LNCaP95 cells. The assay is classed as cell-based, human.
The mark [1] stands for this setting: LNCaP95 cells, in response to androgen, Compound A 35 uM.

Turning to `CNC(=O)c1ccc(N2C(=S)N(c3ccc(C#N)c(C(F)(F)F)c3)C(=O)C2(C)C)cc1F` [enzalutamide, 4-(3-(4-cyano-3-(trifluoromethyl)phenyl)-5,5-dimethyl-4-oxo-2-thioxoimidazolidin-1-yl)-2-fluoro-N-methylbenzamide], the “levels of UBE2C transcripts” value (LNCaP95 cells treated with androgen) is on record as “increased”. For the same molecule, the “BEZ-235-induced levels of PSA transcript” value (LNCaP95 cells, absence of androgen, with BEZ-235) is “not”. Further, under setting [1], the “expression of FKBP5” value is given as “inhibited”, the “expression of KLK3” value is “inhibited” and the “expression of TMPRSS2” value is “inhibited”.
